Reference: patent US9725465B2, “Biaryl acetamide compounds and methods of use thereof” (Ambit Biosciences Corporation, priority 2013, dated 2017)

Assays:
FLT3-ITD-F691L = FLT3-ITD-F691L (Homo sapiens (Human), UniProt P36888, F691L/INS600HVDFREYEYD); experiment: pFLT3 MSD assay, Ba/F3 FLT3-ITD-F691L; format: cell-based; conditions: Ba/F3 FLT3-ITD-F691L cells, 2 hours, read-out: BaF3-FLT3-ITD-F691L pFlt3 IC50
FLT3-ITD-D835V = FLT3-ITD-D835V (Homo sapiens (Human), UniProt P36888, D835V/INS600HVDFREYEYD); experiment: pFLT3 MSD assay, Ba/F3 FLT3-ITD-D835V; format: cell-based; conditions: Ba/F3 FLT3-ITD-D835V cells, 2 hours, read-out: BaF3-FLT3-ITD-D835V pFlt3 IC50
[1] = tested on: Ba/F3 cells expressing FLT3-ITD
[2] = tested on: Ba/F3 cells expressing FLT3-ITD-D835V

SMILES | IC50 (FLT3-ITD-F691L) [nM] | IC50 (FLT3-ITD-D835V) [nM] | IC50 [1] [nM] | IC50 [2] [nM]
COc1cc2ncc(-c3ccc(CC(=O)Nc4cc(C5(C(F)(F)F)CC5)on4)cc3)nc2cc1OC [Example 1, 2-(4-(6,7-dimethoxyquinoxalin-2-yl)phenyl)-N-(5-(1-(trifluoromethyl)cyclopropyl)isoxazol-3-yl)acetamide] | < 10 | < 10 | < 10 | < 10
COc1cc2cc(-c3ccc(CC(=O)Nc4cc(C5(C(F)(F)F)CC5)on4)cc3)cnc2cc1OC [Example 5, 2-(4-(6,7-dimethoxyquinolin-3-yl)phenyl)-N-(5-(1-(trifluoromethyl)cyclopropyl)isoxazol-3-yl)acetamide] | < 10 | < 10 | < 10 | < 10
COc1cc2ncc(-c3ccc(CC(=O)Nc4cc(C(C)(C)C)on4)cc3)nc2cc1OC [Example 6, N-(5-(tert-butyl)isoxazol-3-yl)-2-(4-(6,7-dimethoxyquinoxalin-2-yl)phenyl)acetamide] | < 10 | < 10 | < 10 | < 10
COc1cc2ncc(-c3ccc(CC(=O)Nc4cc(C(C)(C)C(F)(F)F)on4)cc3)nc2cc1OC [Example 8, 2-(4-(6,7-dimethoxyquinoxalin-2-yl)phenyl)-N-(5-(1,1,1-trifluoro-2-methylpropan-2-yl)isoxazol-3-yl)acetamide] | < 10 | < 10 | < 10 | < 10
O=C(Cc1ccc(-c2cnc3[nH]ncc3c2)cc1)Nc1cc(C2(C(F)(F)F)CC2)on1 [Example 15, 2-(4-(1H-pyrazolo[3,4-b]pyridin-5-yl)phenyl)-N-(5-(1-(trifluoromethyl)cyclopropyl)isoxazol-3-yl)acetamide] | < 10 | < 10 | < 10 | < 10
O=C(Cc1ccc(-c2cnc3[nH]ccc3c2)cc1)Nc1cc(C2(C(F)(F)F)CC2)on1 [Example 18, 2-(4-(1H-pyrrolo[2,3-b]pyridin-5-yl)phenyl)-N-(5-(1-(trifluoromethyl)cyclopropyl)isoxazol-3-yl)acetamide] | < 10 | < 10 | < 10 | < 10
O=C(Cc1ccc(-c2cnc3[nH]ncc3c2)cc1F)Nc1cc(C2(C(F)(F)F)CC2)on1 [Example 33, 2-(2-fluoro-4-(1H-pyrazolo[3,4-b]pyridin-5-yl)phenyl)-N-(5-(1-(trifluoromethyl)cyclopropyl)isoxazol-3-yl)acetamide] | < 10 | < 10 | < 10 | < 10
COc1n[nH]c2ncc(-c3ccc(CC(=O)Nc4cc(C(C)(C)C(F)(F)F)on4)cc3)cc12 [Example 35, 2-(4-(3-methoxy-1H-pyrazolo[3,4-b]pyridin-5-yl)phenyl)-N-(5-(1,1,1-trifluoro-2-methylpropan-2-yl)isoxazol-3-yl)acetamide] | < 10 | < 10 | < 10 | < 10
CCOc1n[nH]c2ncc(-c3ccc(CC(=O)Nc4cc(C(C)(C)C(F)(F)F)on4)cc3)cc12 [Example 39, 2-(4-(3-ethoxy-1H-pyrazolo[3,4-b]pyridin-5-yl)phenyl)-N-(5-(1,1,1-trifluoro-2-methylpropan-2-yl)isoxazol-3-yl)acetamide] | < 10 | < 10 | < 10 | < 10
COc1cc2ncc(-c3ccc(CC(=O)Nc4cc(C(C)(C)C)on4)c(F)c3)nc2cc1OC [Example 43, N-(5-(tert-butyl)isoxazol-3-yl)-2-(4-(6,7-dimethoxyquinoxalin-2-yl)-2-fluorophenyl)acetamide] | < 10 | < 10 | < 10 | < 10
COc1cc2ncc(-c3ccc(CC(=O)Nc4cc(C(C)(C)C(F)(F)F)on4)c(F)c3)nc2cc1OC [Example 46, 2-(4-(6,7-dimethoxyquinoxalin-2-yl)-2-fluorophenyl)-N-(5-(1,1,1-trifluoro-2-methylpropan-2-yl)isoxazol-3-yl)acetamide] | < 10 | < 10 | < 10 | < 10
COCCOc1n[nH]c2ncc(-c3ccc(CC(=O)Nc4cc(C(C)(C)C(F)(F)F)on4)cc3)cc12 [Example 47, 2-(4-(3-(2-methoxyethoxy)-1H-pyrazolo[3,4-b]pyridin-5-yl)phenyl)-N-(5-(1,1,1-trifluoro-2-methylpropan-2-yl)isoxazol-3-yl)acetamide] | < 10 | < 10 | < 10 | < 10
COc1cc2nc(-c3ccc(CC(=O)Nc4cc(C5(C(F)(F)F)CC5)on4)c(F)c3)cnc2cc1OCCN1CCCOCC1 [Example 240, 2-[2-fluoro-4-[7-methoxy-6-[2-(1,4-oxazepan-4-yl)ethoxy]quinoxalin-2-yl]phenyl]-N-[5-[1-(trifluoromethyl)cyclo-propyl]isoxazol-3-yl]acetamide] |  |  | < 10 | < 10
COc1cc2nc(-c3ccc(CC(=O)Nc4cc(C5(C(F)(F)F)CC5)on4)c(F)c3)cnc2cc1OCCN1CCO[C@H](C)C1 [Example 242, 2-[2-fluoro-4-[7-methoxy-6-[2-[(2R)-2-methylmorpholin-4-yl]ethoxy]quinoxalin-2-yl]phenyl]-N-[5-[1-(trifluoromethyl)cyclo-propyl]isoxazol-3-yl]acetamide] |  |  | < 10 | < 10
COc1cc2nc(-c3ccc(CC(=O)Nc4cc(C5(C(F)(F)F)CC5)on4)c(F)c3)cnc2cc1OCCN1CCOC[C@@H]1C [Example 243, 2-[2-fluoro-4-[7-methoxy-6-[2-[(3S)-3-methylmorpholin-4-yl]ethoxy]quinoxalin-2-yl]phenyl]-N-[5-[1-(trifluoromethyl)cyclo-propyl]isoxazol-3-yl]acetamide] |  |  | < 10 | < 10
COc1cc2nc(-c3ccc(CC(=O)Nc4cc(C5(C(F)(F)F)CC5)on4)c(F)c3)cnc2cc1OCCN1C2CCC1COC2 [Example 245, 2-[2-fluoro-4-[7-methoxy-6-[2-(3-oxa-8-azabicyclo[3.2.1]octan-8-yl)ethoxy]quinoxalin-2-yl]phenyl]-N-[5-[1-(trifluoromethyl)cyclo-propyl]isoxazol-3-yl]acetamide] |  |  | < 10 | < 10

Second part, the molecule after the results:

IC50 (FLT3-ITD-F691L) [nM] | IC50 (FLT3-ITD-D835V) [nM] | IC50 [1] [nM] | IC50 [2] [nM] | SMILES
< 10 | < 10 | < 10 | < 10 | COc1cc2ncc(-c3ccc(CC(=O)Nc4cc(C5(C(F)(F)F)CC5)on4)c(F)c3)nc2cc1OC [Example 4, 2-(4-(6,7-dimethoxyquinoxalin-2-yl)-2-fluorophenyl)-N-(5-(1-(trifluoromethyl)cyclopropyl)isoxazol-3-yl)acetamide]
 |  | < 10 | < 10 | COc1cc2ncc(-c3ccc(CC(=O)Nc4cc(C5(C(F)(F)F)CC5)on4)c(F)c3)nc2cc1OCC(O)CO (stereo not shown) [Example 236, 2-[4-[7-(2,3-dihydroxypropoxy)-6-methoxy-quinoxalin-2-yl]-2-fluoro-phenyl]-N-[5-[1-(trifluoromethyl)cyclo-propyl]isoxazol-3-yl]acetamide]
 |  | < 10 | < 10 | COc1cc2nc(-c3ccc(CC(=O)Nc4cc(C5(C(F)(F)F)CC5)on4)c(F)c3)cnc2cc1OCCCNC(C)=O [Example 237, 2-[4-[6-(3-acetamidopropoxy)-7-methoxy-quinoxalin-2-yl]-2-fluoro-phenyl]-N-[5-[1-(trifluoromethyl)cyclo-propyl]isoxazol-3-yl]acetamide]
 |  | < 10 | < 10 | COc1cc2nc(-c3ccc(CC(=O)Nc4cc(C5(C(F)(F)F)CC5)on4)c(F)c3)cnc2cc1OCC(O)CO (stereo not shown) [Example 238, 2-[4-[6-(2,3-dihydroxypropoxy)-7-methoxy-quinoxalin-2-yl]-2-fluoro-phenyl]-N-[5-[1-(trifluoromethyl)cyclo-propyl]isoxazol-3-yl]acetamide]
 |  | < 10 | < 10 | COc1cc2ncc(-c3ccc(CC(=O)Nc4cc(C5(C(F)(F)F)CC5)on4)c(F)c3)nc2cc1OCC(C)(C)O [Example 239, 2-[2-fluoro-4-[7-(2-hydroxy-2-methyl-propoxy)-6-methoxy-quinoxalin-2-yl]phenyl]-N-[5-[1-(trifluoro-methyl)cyclopropyl]isoxazol-3-yl]acetamide]
 |  | < 10 | < 10 | COc1cc2nc(-c3ccc(CC(=O)Nc4cc(C5(C(F)(F)F)CC5)on4)c(F)c3)cnc2cc1OCCN1CCNCC1 [Example 241, 2-[2-fluoro-4-[7-methoxy-6-(2-piperazin-1-ylethoxy)quinoxalin-2-yl]phenyl]-N-[5-[1-(trifluoromethyl)cyclo-propyl]isoxazol-3-yl]acetamide]
 |  | < 10 | < 10 | COc1cc2nc(-c3ccc(CC(=O)Nc4cc(C5(C(F)(F)F)CC5)on4)c(F)c3)cnc2cc1OCCN1CCOC[C@H]1C [Example 247, 2-[2-fluoro-4-[7-methoxy-6-[2-[(3R)-3-methylmorpholin-4-yl]ethoxy]quinoxalin-2-yl]phenyl]-N-[5-[1-(trifluoromethyl)cyclo-propyl]isoxazol-3-yl]acetamide]
 |  | < 10 | < 10 | COc1cc2nc(-c3ccc(CC(=O)Nc4cc(C5(C(F)(F)F)CC5)on4)c(F)c3)cnc2cc1OCCN1CCO[C@@H](C)C1 [Example 248, 2-[2-fluoro-4-[7-methoxy-6-[2-[(2S)-2-methylmorpholin-4-yl]ethoxy]quinoxalin-2-yl]phenyl]-N-[5-[1-(trifluoromethyl)cyclo-propyl]isoxazol-3-yl]acetamide]
 |  | < 10 | 10 to 20 | COc1cc2nc(-c3ccc(CC(=O)Nc4cc(C5(C(F)(F)F)CC5)on4)c(F)c3)cnc2cc1OCC(C)(C)O [Example 249, 2-[2-fluoro-4-[6-(2-hydroxy-2-methyl-propoxy)-7-methoxy-quinoxalin-2-yl]phenyl]-N-[5-[1-(trifluoro-methyl)cyclopropyl]isoxazol-3-yl]acetamide]
